# Measured values published in patent publication US20210008075A1, “PEDIATRIC DOSING FOR TREATMENT OF CANCER WITH AN EZH2 INHIBITOR” (Epizyme, Inc., priority 2015, published 2021).
# What was measured:
# [1] = adults, suspension and tablet formulations
# [2] = system: SMARCB1-deleted G401 cells; conditions: in vitro, ATP content, versus RD cells
# [3] = system: primary medulloblastoma cells; conditions: 500 nM or 2 μM for 4 days, BrdU for 4 hours
# Medulloblastoma cells = assay: Medulloblastoma cell growth, total cells per milliliter counted; assay type: cell-based; conditions: 0.5 μM, 2 μM and 6 μM
smiles,measurement,setting,value
CCN(c1cc(-c2ccc(CN3CCOCC3)cc2)cc(C(=O)NCc2c(C)cc(C)[nH]c2=O)c1C)C1CCOCC1 [tazemetostat],predicted mean steady-state Cmax relative to observed values,[1],≤ 2 fold
same,proliferation of SMARCB1-deleted G401 cells,[2],Selective inhibition of proliferation
same,number of cells synthesizing DNA (BrdU incorporation),[3],significantly decreased
same,concentration dependence of effect on medulloblastoma cell growth,Medulloblastoma cells,concentration dependent
